# Earlier results in patent US20220400686A1, “COMPOSITIONS AND METHODS FOR ON-DEMAND RELEASE OF ANTIMICROBIAL AGENTS” (priority 2019, published 2022).
# Conditions: previously shown (Hernandez et al. 2014); cited from earlier work
substance,measurement,value
/5Carboxyl/mCmGTTmCmG/3Acryd/ [0 PS oligo],stability to mouse and human serum,enhanced stability
